# Antibody variant affinities, Ab-14 heavy chain, assay 1

Data: MIT Lincoln Laboratory AlphaSeq set, Engelhart et al. 2022, doi:10.1038/s41597-022-01779-4, as distributed in FLAb.

Binding partner: SARS-CoV-2 spike HR2 peptide, sequence PDVDLGDISGINAS.

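The parent was found by panning a naive human phage display library on the peptide. The library (AAYL49) carries one to three amino acid substitutions per variant, with no insertions or deletions. AlphaSeq pools MATa yeast showing the antibodies with MATalpha yeast showing the peptide. Pairs that bind mate more often; barcode pairs of the diploids are counted by sequencing. Each replicate has its own calibration line, from reference interactions of the BCL2 family. Mating was done three times.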

Each scFv is VH, the linker GGGGSGGGGSGGGGS, VL, as in the parent Ab-14, and differs from it in the CDRs of the heavy chain only.
VH: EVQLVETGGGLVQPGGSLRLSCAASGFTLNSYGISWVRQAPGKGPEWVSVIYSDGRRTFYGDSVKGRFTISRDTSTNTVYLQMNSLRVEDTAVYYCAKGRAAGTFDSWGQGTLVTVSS
VL: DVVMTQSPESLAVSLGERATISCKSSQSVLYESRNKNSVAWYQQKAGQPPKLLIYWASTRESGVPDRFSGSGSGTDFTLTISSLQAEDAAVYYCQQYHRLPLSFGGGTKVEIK

Positions count from residue 1 of the parent VH; S31R puts R in place of S. The read-out is the apparent dissociation constant on a log10 scale (nM): the lower, the stronger. A mean of the replicates is given; it leaves out those without a signal. Where no diploid with the target was found in that replicate, the entry reads "n.d.": below detection, most likely a poor binder, though not proof of it. As a blank, each scFv also met three strains without target: over library AAYL49, 15% of these pairings were detected, typically at 4.06 and seldom below 2.83. Also given: how often the same scFv was detected with the empty control strains, with their mean in brackets. Parent in this assay: reference entry 0.65, copy in this library 4.11 (one replicate of three).

changes,log10 Kd (nM) by replicate,"mean, log10 nM",control signals
S31R/V50Y/A101N,3.26 / n.d. / n.d.,3.26,2 of 9 (2.93)
Y52C/Y60G,4.87 / 4.35 / n.d.,4.61,5 of 9 (4.52)
G33W/D54V/T104A,5.46 / n.d. / n.d.,5.46,3 of 9 (3.87)
L29K/S63H/S107W,n.d. / n.d. / n.d.,n.d.,0 of 9
Y52S/G99V,n.d. / n.d. / n.d.,n.d.,0 of 9
T28I/D54Y/V64W,n.d. / n.d. / 3.38,3.38,0 of 9
G26L/N30S/V64Y,3.93 / n.d. / n.d.,3.93,0 of 9
G61M/S63T/A101R,2.05 / 2.70 / 2.11,2.29,0 of 9
G26D/V50W/G99M,n.d. / n.d. / n.d.,n.d.,0 of 9
G33M/F59K/S107H,n.d. / n.d. / n.d.,n.d.,0 of 9
T28M/G55N,n.d. / 4.98 / n.d.,4.98,2 of 9 (4.55)
G26F/S35A,n.d. / 4.56 / n.d.,4.56,3 of 9 (3.54)
S31T/I34V,0.57 / 0.77 / 0.63,0.66,1 of 9 (4.36)
I51F/G55K/G61I,n.d. / n.d. / n.d.,n.d.,0 of 9
S35L/Y52M/A101R,n.d. / n.d. / n.d.,n.d.,3 of 9 (4.81)
S31Y/G55S/V64S,n.d. / n.d. / n.d.,n.d.,1 of 9 (4.11)
T58Q/T104Q,1.84 / 1.45 / 1.56,1.61,2 of 9 (3.67)
Y32I/D54W/R57N,n.d. / n.d. / n.d.,n.d.,0 of 9
G26C/R56C/F59K,n.d. / n.d. / 4.71,4.71,1 of 9 (4.06)
V50G/R100V/D106R,n.d. / 4.56 / n.d.,4.56,5 of 9 (3.69)
S31E/Y32M/D62Q,1.93 / n.d. / 0.63,1.28,0 of 9
F27L/I51C/R56W,3.62 / n.d. / 5.89,4.76,3 of 9 (3.77)
R57S/S63V,n.d. / n.d. / n.d.,n.d.,1 of 9 (3.49)
N30D/Y52L/G61E,n.d. / n.d. / n.d.,n.d.,0 of 9
Y32T/V50R/D106M,n.d. / n.d. / n.d.,n.d.,3 of 9 (4.59)
G33A/T58Y/S107R,n.d. / n.d. / n.d.,n.d.,0 of 9
F27K/N30A/G55K,n.d. / n.d. / n.d.,n.d.,0 of 9
F27A/S53P/D62Q,n.d. / 4.10 / n.d.,4.10,0 of 9
R100F/A102I/G103K,n.d. / n.d. / n.d.,n.d.,1 of 9 (3.41)
G55Y/F105L/D106V,n.d. / n.d. / n.d.,n.d.,0 of 9
S53Q,2.38 / 2.57 / 2.54,2.50,1 of 9 (4.37)
L29M/G61A/D106F,0.92 / 0.96 / 1.21,1.03,1 of 9 (3.36)
T28K/I51S,3.49 / n.d. / n.d.,3.49,1 of 9 (3.59)
Y32V/V64F/A101W,3.32 / 2.66 / 2.77,2.91,0 of 9

From the list, the first 4 with no signal in any replicate:

changes,log10 Kd (nM) by replicate,"mean, log10 nM",control signals
L29K/S63H/S107W,n.d. / n.d. / n.d.,n.d.,0 of 9
Y52S/G99V,n.d. / n.d. / n.d.,n.d.,0 of 9
G26D/V50W/G99M,n.d. / n.d. / n.d.,n.d.,0 of 9
G33M/F59K/S107H,n.d. / n.d. / n.d.,n.d.,0 of 9